Results on 2 compounds are retold here after PMC6935813, “Assessment of the Aromatase Inhibitory Activity of Ma-Huang-Tang (MHT) and Its Active Compounds” (Evidence-based Complementary and Alternative Medicine : eCAM, 2019).

Amino acid sequences for entries named in this document (tags omitted). A change or cut given only in a name is not applied to a line headed by its entry.
UniProt P11511: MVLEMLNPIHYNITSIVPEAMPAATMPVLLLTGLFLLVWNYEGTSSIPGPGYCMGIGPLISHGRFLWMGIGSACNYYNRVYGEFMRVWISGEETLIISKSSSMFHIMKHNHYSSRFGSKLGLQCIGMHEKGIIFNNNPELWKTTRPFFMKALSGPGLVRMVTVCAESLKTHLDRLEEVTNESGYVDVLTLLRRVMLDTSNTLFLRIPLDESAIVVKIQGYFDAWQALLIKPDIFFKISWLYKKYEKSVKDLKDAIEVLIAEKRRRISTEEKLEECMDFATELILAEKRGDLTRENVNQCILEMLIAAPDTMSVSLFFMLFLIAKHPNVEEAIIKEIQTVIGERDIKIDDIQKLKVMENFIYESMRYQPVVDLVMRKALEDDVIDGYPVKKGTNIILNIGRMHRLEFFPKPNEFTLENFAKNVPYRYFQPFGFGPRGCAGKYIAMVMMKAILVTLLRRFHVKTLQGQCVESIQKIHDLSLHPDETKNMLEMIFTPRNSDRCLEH

The target in assay [1] is T1, aromatase (Homo sapiens, UniProt P11511). The assay is described as follows: Cell-based aromatase assay: estrone ELISA in KGN cells given androstenedione. To be noted: estrone level by ELISA; maximum con. 5 mM; read-out: Aromatase inhibition IC50 in KGN cells. The protocol:
The human granulosa-like tumor cell line KGN was obtained from RIKEN BioResource Center (Ibaraki, JPN). The cells were grown in Dulbecco's modified Eagle's medium/Ham's F-12 nutrient mix ([…], KOR) supplemented with 5% (v/v) fetal bovine serum (FBS) and 0.5% antibiotics (100 U/mL penicillin and 100 μg/mL streptomycin, Gibco BRL, NY, USA) in a humidified atmosphere of 5% CO2 at 37°C. Prior to treatment with MHT and its components in all the experiments, the cells were cultured for 24 h by switching to phenol-red free DMEM/H-12 medium ([…], KOR) with 5% (v/v) charcoal-stripped FBS (HyClone, Logan, UT, USA), and the samples were treated under the same conditions. Cells (4 × 10^4 cells/mL) were placed on a 96-well tissue culture plate and incubated in DMEM/F-12 medium with 5% charcoal-stripped FBS (HyClone, Logan, UT, USA) overnight. After the addition of MHT or its components, the cells were incubated for 24 h. […] Fractions of the supernatant were harvested and transferred to a new Eppendorf tube.
(An ELISA detects its analyte on a solid surface through an enzyme-linked reagent.)

In assay [2] the target is T1, aromatase. The assay is described as follows: Cell-free fluorescence-based aromatase inhibition assay (DBF hydrolysis). To be noted: read-out: Aromatase inhibition IC50, DBF substrate, human CYP19 Supersomes.

For the compound `O=C1C[C@@H](c2ccc(O[C@@H]3O[C@H](CO)[C@@H](O)[C@H](O)[C@H]3O)cc2)Oc2cc(O)ccc21` [Liquiritin (5), liquiritin], the IC50 at aromatase [1] was determined as 499 µM.

“liquiritin apioside [Liquiritin apioside (6)]”: the IC50 on aromatase [1] turned out to be 522 µM; on aromatase [2], 508 µM.

What is called IC50 is the concentration at which inhibition is half-maximal.
